The results in this text go back to US10301297B2, “Substituted nicotinimide inhibitors of BTK and their preparation and use in the treatment of cancer, inflammation and autoimmune disease” (GUANGZHOU INNOCARE PHARMA TECH CO., LTD., priority 2013, dated 2019).

This assay addresses SRC (Homo sapiens (Human), UniProt P12931). In words: kinase binding screen (affinity beads, qPCR readout) at 1000 nM. A general note: Real-time PCR tracks product formation cycle by cycle.

As a reminder, the inhibition is the percentage by which the read-out fell short of the control. A lower inhibition goes with little suppression. Consider `C=CC(=O)N1CCC(c2ccc(C(N)=O)c(-c3ccc(Oc4ccccc4)cc3)n2)CC1` [Example 3, 6-(1-acryloylpiperidin-4-yl)-2-(4-phenoxyphenyl)nicotinamide], for which the inhibition at 1 µM is 23%.
